Values joined by “and” are separate entries in the source; they are usually repeats but may differ in a detail not shown here. Equal entries are not always repeated. The list shows a part of the results, in another mix than the full data.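 Each cell line was grown in a 96-well plate and treated with one concentration of compound for 48 hours. Values below 10 were considered active.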 Active and inactive are the calls of the source.
Assays:
Experiment in all cases: NCI-60 one-dose screen, 48 h (100 = growth as untreated, 0 = no growth, -100 = all killed)
Details in all cases: 10 µM
HCT-15 colon = test system: HCT-15 colon
HT29 colon = test system: HT29 colon
SNB-75 CNS = test system: SNB-75 CNS
SNB-19 CNS = test system: SNB-19 CNS
U251 CNS = test system: U251 CNS
PC-3 prostate = test system: PC-3 prostate
SK-MEL-5 melanoma = test system: SK-MEL-5 melanoma
UACC-62 melanoma = test system: UACC-62 melanoma
LOX IMVI melanoma = test system: LOX IMVI melanoma
SK-MEL-28 melanoma = test system: SK-MEL-28 melanoma

Measured: growth

Oc1ccc(O)c(CN(CCCl)CCCl)c1
inactive: HCT-15 colon 98.1% | HT29 colon 90% | SNB-75 CNS 92.9% | SNB-19 CNS 106% | U251 CNS 107% | PC-3 prostate 95.7% | SK-MEL-5 melanoma 108% | UACC-62 melanoma 88.6% | LOX IMVI melanoma 89.4% | SK-MEL-28 melanoma 117%

O=P1(N(CCCl)CCCl)SCCCS1
inactive: HCT-15 colon 108% | HT29 colon 116% | SNB-75 CNS 91.9% | SNB-19 CNS 113% | U251 CNS 99.9% | PC-3 prostate 113% | SK-MEL-5 melanoma 107% | UACC-62 melanoma 109% | LOX IMVI melanoma 97.8% | SK-MEL-28 melanoma 110%

Oc1ccc(Br)cc1CN(CCCl)CCCl
inactive: HCT-15 colon 67.5% | HT29 colon 63.3% | SNB-75 CNS 64% | SNB-19 CNS 58.8% | U251 CNS 53.1% | PC-3 prostate 77.7% | SK-MEL-5 melanoma 73% | UACC-62 melanoma 36.3% | LOX IMVI melanoma 41.7% | SK-MEL-28 melanoma 94%

CCOP(=O)(Cl)OCC
inactive: HCT-15 colon 103% | HT29 colon 102% | SNB-75 CNS 86.7% | SNB-19 CNS 103% | U251 CNS 107% | PC-3 prostate 92.3% | SK-MEL-5 melanoma 110% | UACC-62 melanoma 102% | LOX IMVI melanoma 101% | SK-MEL-28 melanoma 105%

c1ccc(CN2CCC(Nc3ccccc3)CC2)cc1
inactive: HCT-15 colon 107% | HT29 colon 103% | SNB-75 CNS 97.8% | SNB-19 CNS 104% | U251 CNS 102% | PC-3 prostate 91.4% | SK-MEL-5 melanoma 104% | UACC-62 melanoma 96.8% | LOX IMVI melanoma 104% | SK-MEL-28 melanoma 107%

Cc1cccc(CN(CCCl)CCCl)c1
inactive: HCT-15 colon 96.6% | HT29 colon 76.2% | SNB-75 CNS 86.6% | SNB-19 CNS 96.8% | U251 CNS 76.5% | PC-3 prostate 79.4% | SK-MEL-5 melanoma 97.1% | UACC-62 melanoma 87.1% | LOX IMVI melanoma 75.8% | SK-MEL-28 melanoma 110%

O=C1CCN(CCc2ccccc2)CC1
inactive: HCT-15 colon 100% | HT29 colon 105% | SNB-75 CNS 88.8% | SNB-19 CNS 80.3% | U251 CNS 98.7% | PC-3 prostate 98% | SK-MEL-5 melanoma 99.5% | UACC-62 melanoma 89.2% | LOX IMVI melanoma 105% | SK-MEL-28 melanoma 101%

NC(Cc1cccc(N(CCCl)CCCl)c1)C(=O)O (stereo unspecified)
inactive: HCT-15 colon 104% and 101% | HT29 colon 102% and 104% | SNB-75 CNS 99.7% and 80% | SNB-19 CNS 96% and 111% | U251 CNS 98.1% and 93.8% | PC-3 prostate 84.8% and 88.2% | SK-MEL-5 melanoma 87.5% and 92.7% | UACC-62 melanoma 87.7% and 89.4% | LOX IMVI melanoma 89% and 88.9% | SK-MEL-28 melanoma 107% and 101%

Cc1ccc(S(=O)(=O)CN(CCBr)CCBr)cc1
inactive: HCT-15 colon 101% | HT29 colon 98.2% | SNB-75 CNS 69.9% | SNB-19 CNS 102% | PC-3 prostate 102% | SK-MEL-5 melanoma 103% | UACC-62 melanoma 100% | LOX IMVI melanoma 91.7% | SK-MEL-28 melanoma 113%

BrCCN(CCBr)CCCN(CCBr)CCBr
inactive: HCT-15 colon 97.4% | HT29 colon 105% | SNB-75 CNS 88.4% | SNB-19 CNS 118% | PC-3 prostate 98.3% | SK-MEL-5 melanoma 100% | UACC-62 melanoma 105% | LOX IMVI melanoma 91.1% | SK-MEL-28 melanoma 112%

Cc1ccc(NC2(C(N)=O)CCNCC2)cc1
inactive: HCT-15 colon 103% | HT29 colon 118% | SNB-19 CNS 94.1% | U251 CNS 101% | PC-3 prostate 98% | SK-MEL-5 melanoma 101% | UACC-62 melanoma 89.8% | LOX IMVI melanoma 100% | SK-MEL-28 melanoma 108%

CCOC(=O)c1ccc(N(CCCl)CCCl)cc1
inactive: HCT-15 colon 94.4% | HT29 colon 104% | SNB-75 CNS 99.6% | SNB-19 CNS 103% | PC-3 prostate 85.3% | SK-MEL-5 melanoma 100% | UACC-62 melanoma 95.8% | LOX IMVI melanoma 101% | SK-MEL-28 melanoma 99.3%

CCCCOc1ccc(N(CCCl)CCCl)cc1
inactive: HCT-15 colon 108% | HT29 colon 95.4% | SNB-75 CNS 83.7% | SNB-19 CNS 104% | U251 CNS 98.2% | PC-3 prostate 99.5% | SK-MEL-5 melanoma 108% | UACC-62 melanoma 103% | LOX IMVI melanoma 95.5% | SK-MEL-28 melanoma 107%

CC(=O)N(c1ccccc1)C1CCNCC1
inactive: HCT-15 colon 109% | HT29 colon 102% | SNB-75 CNS 86.3% | SNB-19 CNS 113% | U251 CNS 107% | PC-3 prostate 110% | SK-MEL-5 melanoma 109% | UACC-62 melanoma 112% | SK-MEL-28 melanoma 107%

O=CC(O)C(O)C(O)C(O)CN(CCCl)CCCl (stereo unspecified)
inactive: HCT-15 colon 99.8% | HT29 colon 113% | SNB-75 CNS 94.4% | SNB-19 CNS 100% | U251 CNS 95.5% | PC-3 prostate 89.5% | SK-MEL-5 melanoma 98.1% | UACC-62 melanoma 96% | LOX IMVI melanoma 93.4% | SK-MEL-28 melanoma 106%

O/N=C/c1ccc(N(CCCl)CCCl)cc1
inactive: HCT-15 colon 92.7% | HT29 colon 87.2% | SNB-75 CNS 70.4% | SNB-19 CNS 104% | PC-3 prostate 93% | SK-MEL-5 melanoma 102% | UACC-62 melanoma 83.6% | LOX IMVI melanoma 87.8% | SK-MEL-28 melanoma 105%

BrCCN(CCBr)c1ccc2c(c1)Cc1ccccc1-2
inactive: HCT-15 colon 50.3% | HT29 colon 47.5% | SNB-75 CNS 32.9% | SNB-19 CNS 41% | U251 CNS 22.5% | PC-3 prostate 46.4% | SK-MEL-5 melanoma 41.5% | UACC-62 melanoma 42.4% | LOX IMVI melanoma 16.4% | SK-MEL-28 melanoma 78.7%

ClCCN1[C@@H](CCl)CC[C@@H]1c1ccccc1
inactive: HCT-15 colon 98.6% | SNB-75 CNS 84.7% | SNB-19 CNS 102% | U251 CNS 98.2% | PC-3 prostate 94.1% | SK-MEL-5 melanoma 100% | UACC-62 melanoma 96.8% | LOX IMVI melanoma 79.1% | SK-MEL-28 melanoma 115%

COc1cc(CN(CCCl)CCCl)cc(OC)c1
inactive: HCT-15 colon 96% | HT29 colon 100% | SNB-75 CNS 73.1% | SNB-19 CNS 105% | U251 CNS 97.1% | PC-3 prostate 97.2% | SK-MEL-5 melanoma 99.2% | UACC-62 melanoma 97.5% | LOX IMVI melanoma 96.3% | SK-MEL-28 melanoma 95.4%

C[N+](C)(CCCl)CCCl
inactive: HCT-15 colon 106% | HT29 colon 103% | SNB-75 CNS 76.7% | SNB-19 CNS 104% | U251 CNS 98.8% | PC-3 prostate 93% | SK-MEL-5 melanoma 106% | UACC-62 melanoma 104% | LOX IMVI melanoma 72.1% | SK-MEL-28 melanoma 106%

Cc1cccc(NC2(C#N)CCN(Cc3ccccc3)CC2)c1
inactive: HCT-15 colon 95.3% | HT29 colon 114% | SNB-75 CNS 94.8% | SNB-19 CNS 100% | U251 CNS 105% | PC-3 prostate 91.2% | SK-MEL-5 melanoma 115% | UACC-62 melanoma 109% | LOX IMVI melanoma 99.3% | SK-MEL-28 melanoma 107%

ClCCN(CCCl)CCc1ccccc1
inactive: HCT-15 colon 116% | HT29 colon 101% | SNB-75 CNS 99.2% | SNB-19 CNS 92% | U251 CNS 100% | PC-3 prostate 102% | SK-MEL-5 melanoma 105% | UACC-62 melanoma 83.2% | LOX IMVI melanoma 101% | SK-MEL-28 melanoma 98.2%

CC1(C)NC(=O)N(CCN(CCCl)CCCl)C1=O
inactive: HCT-15 colon 99.9% | HT29 colon 111% | SNB-75 CNS 88.4% | U251 CNS 103% | PC-3 prostate 109% | SK-MEL-5 melanoma 104% | UACC-62 melanoma 99.2% | LOX IMVI melanoma 95.2% | SK-MEL-28 melanoma 110%

ClCCSC(SCCCl)=C(SCCCl)SCCCl
inactive: HCT-15 colon 81.5% | HT29 colon 100% | SNB-75 CNS 93.6% | U251 CNS 83.6% | PC-3 prostate 73.2% | SK-MEL-5 melanoma 88.7% | UACC-62 melanoma 52.3% | LOX IMVI melanoma 57.4% | SK-MEL-28 melanoma 98.3%

Cc1ccc(N(CCCl)CCCl)cc1
inactive: HCT-15 colon 80.9% | HT29 colon 85.8% | SNB-75 CNS 76.7% | SNB-19 CNS 66.5% | U251 CNS 67.7% | PC-3 prostate 74% | SK-MEL-5 melanoma 83.1% | UACC-62 melanoma 73.1% | LOX IMVI melanoma 45.8% | SK-MEL-28 melanoma 98.2%

COc1cc(N(CCCl)CCCl)cc(OC)c1OC
inactive: HCT-15 colon 93.2% | HT29 colon 88.3% | SNB-75 CNS 113% | SNB-19 CNS 98.3% | U251 CNS 80.2% | PC-3 prostate 72.5% | SK-MEL-5 melanoma 90.7% | UACC-62 melanoma 87.5% | LOX IMVI melanoma 83.7% | SK-MEL-28 melanoma 113%

CC(C)(C)C(=O)CBr
inactive: HCT-15 colon 110% | HT29 colon 110% | SNB-75 CNS 100% | SNB-19 CNS 103% | U251 CNS 99.8% | PC-3 prostate 96.8% | SK-MEL-5 melanoma 101% | UACC-62 melanoma 109% | LOX IMVI melanoma 57.6% | SK-MEL-28 melanoma 113%

Cc1ccc(NC2(C#N)CCN(Cc3ccccc3)CC2)cc1
inactive: HCT-15 colon 84.2% | HT29 colon 97.2% | SNB-75 CNS 81.3% | SNB-19 CNS 105% | U251 CNS 96.7% | PC-3 prostate 93.3% | SK-MEL-5 melanoma 104% | UACC-62 melanoma 86.7% | LOX IMVI melanoma 88.9% | SK-MEL-28 melanoma 117%

O=C(O)CCc1ccc(CSCCCl)cc1
inactive: HCT-15 colon 105% | HT29 colon 107% | SNB-75 CNS 101% | SNB-19 CNS 99.4% | U251 CNS 108% | PC-3 prostate 99% | SK-MEL-5 melanoma 101% | UACC-62 melanoma 93% | LOX IMVI melanoma 103% | SK-MEL-28 melanoma 109%

O=C(O)CCCCc1ccc(N(CCCl)CCCl)cc1
inactive: HCT-15 colon 88.3% | HT29 colon 90.3% | SNB-75 CNS 84.2% | SNB-19 CNS 93.9% | U251 CNS 72.7% | PC-3 prostate 75.3% | SK-MEL-5 melanoma 94% | UACC-62 melanoma 82.6% | LOX IMVI melanoma 75.7% | SK-MEL-28 melanoma 107%

Source: PubChem BioAssay (NCI)
